What was measured:
[1] = target: Mu-type opioid receptor (Homo sapiens, UniProt P35372); assay: Human Mu-Opioid Peptide (hMOP) Receptor Binding Assay: The hMOP receptor binding assay was performed as homogeneous SPA-assay (scintillation proximity assay) using the assay buffer 50 mM TRIS-HCl (pH 7.4) supplemented with […] bovine serum albumin (Sigma-Aldrich Co. St. Louis. Mo.). The final assay volume (250 l/well) included 1 nM of [N-allyl-2.3-3H]naloxone as ligand (PerkinElmer Life Sc
[2] = target: Nociceptin receptor (Homo sapiens, UniProt P41146); assay: Human Nociceptin/Orphanin FQ Peptide (hNOP) Receptor Binding Assay: The hNOP receptor binding assay was performed as homogeneous SPA-assay (scintillation proximity assay) using the assay buffer 50 mM TRIS-HCl. 10 mM MgCl2. 1 mM EDTA (pH 7.4). The final assay volume (250 μl/well) included 0.5 nM of [leucyl-3H]nociceptin as ligand (PerkinElmer Life Sciences. Inc. Boston. Mass. USA). and either test

Amino acid sequences for entries named in this document (tags omitted). A change or cut given only in a name is not applied to a line headed by its entry.
UniProt P35372, whole entry, looked up: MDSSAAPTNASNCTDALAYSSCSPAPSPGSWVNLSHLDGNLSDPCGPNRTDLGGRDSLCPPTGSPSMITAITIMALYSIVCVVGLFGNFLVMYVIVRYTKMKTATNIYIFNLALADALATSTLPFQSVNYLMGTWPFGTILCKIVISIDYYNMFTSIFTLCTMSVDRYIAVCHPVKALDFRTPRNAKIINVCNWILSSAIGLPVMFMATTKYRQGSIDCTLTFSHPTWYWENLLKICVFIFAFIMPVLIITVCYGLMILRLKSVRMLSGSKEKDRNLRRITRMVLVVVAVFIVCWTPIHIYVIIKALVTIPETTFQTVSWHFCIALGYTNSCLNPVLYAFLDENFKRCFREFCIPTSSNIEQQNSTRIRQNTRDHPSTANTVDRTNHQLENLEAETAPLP
UniProt P41146: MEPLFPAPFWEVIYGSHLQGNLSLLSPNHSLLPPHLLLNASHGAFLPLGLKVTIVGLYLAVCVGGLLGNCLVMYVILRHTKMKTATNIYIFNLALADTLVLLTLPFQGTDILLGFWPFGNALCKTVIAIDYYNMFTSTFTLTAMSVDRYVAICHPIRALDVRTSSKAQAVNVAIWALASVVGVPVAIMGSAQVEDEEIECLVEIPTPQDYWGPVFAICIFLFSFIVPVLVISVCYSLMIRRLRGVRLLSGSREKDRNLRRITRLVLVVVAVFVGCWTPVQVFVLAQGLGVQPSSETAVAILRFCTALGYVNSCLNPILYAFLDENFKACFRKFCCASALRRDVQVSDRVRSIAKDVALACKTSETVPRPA

COc1cccnc1N1C[C@]2(CC[C@](c3ccccc3)(N(C)C)CC2)NC1=O
Ki [1]: 3890 nM
Ki [2]: 115 nM

Cc1cc(C(F)(F)F)ncc1N1C[C@]2(CC[C@](c3ccccc3)(N(C)C)CC2)N(CC2CC2)C1=O
Ki [1]: 305 nM
Ki [2]: 5 nM

COc1ccc(N2C[C@]3(CC[C@](c4ccccc4)(N(C)C)CC3)NC2=O)cn1
Ki [1]: 2470 nM
Ki [2]: 20 nM

CN(C)[C@]1(c2ccccc2)CC[C@]2(CC1)CN(c1ccc3nc(N4CCOCC4)ncc3c1)C(=O)N2
Ki [1]: 980 nM
Ki [2]: 22 nM

COC(=O)c1ccccc1N1C[C@]2(CC[C@](c3ccccc3)(N(C)C)CC2)NC1=O
Ki [1]: 4270 nM
Ki [2]: 140 nM

CN(CCO)c1nc2cc(N3C[C@]4(CC[C@](c5ccccc5)(N(C)C)CC4)NC3=O)ccc2[nH]1
Ki [1]: 560 nM
Ki [2]: 48 nM

CN(C)[C@]1(c2ccccc2)CC[C@]2(CC1)CN(c1cnc(-n3ccc4cccnc43)nc1)C(=O)N2
Ki [1]: 7650 nM
Ki [2]: 19 nM

CN(C)[C@]1(c2ccccc2)CC[C@]2(CC1)CN(c1cnc(-c3ccc4ncsc4c3)nc1)C(=O)N2
Ki [1]: 4630 nM
Ki [2]: 8 nM

CN(CCO)c1ncc(N2C[C@]3(CC[C@](c4ccccc4)(N(C)C)CC3)NC2=O)cn1
Ki [1]: 2520 nM
Ki [2]: 13 nM

CN(C)[C@]1(c2ccccc2)CC[C@]2(CC1)CN(c1cnc(N3CCS(=O)(=O)CC3)nc1)C(=O)N2
Ki [1]: 6900 nM
Ki [2]: 18 nM

CN[C@]1(c2ccccc2)CC[C@]2(CC1)CN(c1cnc(OC)cn1)C(=O)N2CC1CCC1
Ki [1]: 136 nM
Ki [2]: 5 nM

CN(C)[C@]1(c2ccccc2)CC[C@]2(CC1)CN(c1ccc3nonc3c1)C(=O)N2
Ki [1]: 3480 nM
Ki [2]: 15 nM

CN(C)[C@]1(c2ccccc2)CC[C@]2(CC1)CN(c1ccccc1C(N)=O)C(=O)N2CC1COC1
Ki [1]: 1380 nM
Ki [2]: 92 nM

CN(C)[C@]1(c2ccccc2)CC[C@]2(CC1)CN(c1ncncc1F)C(=O)N2
Ki [1]: 3620 nM
Ki [2]: 105 nM

CN[C@]1(c2ccccc2)CC[C@]2(CC1)CN(c1cnc(N3CCOCC3)nc1)C(=O)N2CC1(O)CCC1
Ki [1]: 19 nM
Ki [2]: 13 nM

Cc1ncc(N2C[C@]3(CC[C@](c4ccccc4)(N(C)C)CC3)N(Cc3ccccn3)C2=O)cn1
Ki [1]: 180 nM
Ki [2]: 45 nM

CN(C)[C@]1(c2ccccc2)CC[C@]2(CC1)CN(c1cncc3ccccc13)C(=O)N2
Ki [1]: 565 nM
Ki [2]: 22 nM

CN[C@]1(c2cccc(F)c2)CC[C@]2(CC1)CN(c1cc(C(F)(F)F)nn1C)C(=O)N2CC1CC1
Ki [1]: 805 nM
Ki [2]: 24 nM

CN[C@]1(c2ccccc2)CC[C@]2(CC1)CN(c1ccccc1CS(C)(=O)=O)C(=O)N2CC1CC1
Ki [1]: 430 nM
Ki [2]: 84 nM

CC(C)c1cn(-c2ncc(N3C[C@]4(CC[C@](c5ccccc5)(N(C)C)CC4)NC3=O)cn2)nn1
Ki [1]: 4850 nM
Ki [2]: 15 nM

CC(=O)Nc1ncc(N2C[C@]3(CC[C@](c4ccccc4)(N(C)C)CC3)NC2=O)cn1
Ki [1]: 5530 nM
Ki [2]: 27 nM

Cc1cc(C#N)cnc1N1C[C@]2(CC[C@](c3ccccc3)(N(C)C)CC2)NC1=O
Ki [1]: 7020 nM
Ki [2]: 51 nM

CN(CCO)c1ncc(N2C[C@]3(CC[C@](c4cccs4)(N(C)C)CC3)NC2=O)cn1
Ki [1]: 1510 nM
Ki [2]: 14 nM

CN(C)[C@]1(c2ccccc2)CC[C@]2(CC1)CN(c1ccccc1CS(C)(=O)=O)C(=O)N2CC1CC1
Ki [1]: 115 nM
Ki [2]: 15 nM

CN(C)[C@]1(c2ccccc2)CC[C@]2(CC1)CN(c1cccc3ncccc13)C(=O)N2
Ki [1]: 1590 nM
Ki [2]: 22 nM

CN(C)[C@]1(c2ccccc2)CC[C@]2(CC1)CN(c1ccnc3[nH]ccc13)C(=O)N2
Ki [1]: 1020 nM
Ki [2]: 31 nM

CN(C)[C@]1(c2ccccc2)CC[C@]2(CC1)CN(c1cccc3ncsc13)C(=O)N2
Ki [1]: 2310 nM
Ki [2]: 30 nM

CN(C)[C@]1(c2ccccc2)CC[C@]2(CC1)CN(c1ccc(S(C)(=O)=O)nc1)C(=O)N2
Ki [1]: 5720 nM
Ki [2]: 13 nM

CN(C)[C@]1(c2ccccc2)CC[C@]2(CC1)CN(c1ncc(C#N)cc1F)C(=O)N2
Ki [1]: 3520 nM
Ki [2]: 66 nM

CN[C@]1(c2ccccc2)CC[C@]2(CC1)CN(c1cnc(C(F)(F)F)nc1)C(=O)N2CC1(O)CCC1
Ki [1]: 150 nM
Ki [2]: 23 nM

Cc1nc(N2CCOCC2)ncc1N1C[C@]2(CC[C@](c3ccc(Cl)s3)(N(C)C)CC2)NC1=O
Ki [1]: 3540 nM
Ki [2]: 125 nM

CSc1cc(N2C[C@]3(CC[C@](c4ccccc4)(N(C)C)CC3)N(CC3CCC3)C2=O)ncn1
Ki [1]: 940 nM
Ki [2]: 25 nM

Cn1nc(C(F)(F)F)cc1N1C[C@]2(CC[C@](c3cccc(F)c3)(N(C)C)CC2)N(CC2CC2)C1=O
Ki [1]: 925 nM
Ki [2]: 12 nM

CN(C)[C@]1(c2ccccc2)CC[C@]2(CC1)CN(c1ccc(C#N)cn1)C(=O)N2
Ki [1]: 1830 nM
Ki [2]: 23 nM

CN(C)[C@]1(c2ccccc2)CC[C@]2(CC1)CN(c1cnc(-c3ccncc3)nc1)C(=O)N2
Ki [1]: 4230 nM
Ki [2]: 5 nM

CN(C)[C@]1(c2ccccc2)CC[C@]2(CC1)CN(c1ccc3ncncc3c1)C(=O)N2
Ki [1]: 5410 nM
Ki [2]: 102 nM

COc1ccccc1CN1C(=O)N(c2cnc(C)nc2)C[C@]12CC[C@](c1ccccc1)(N(C)C)CC2
Ki [1]: 240 nM
Ki [2]: 22 nM

CN(C)[C@]1(c2ccccc2)CC[C@]2(CC1)CN(c1ccc(C#N)cc1)C(=O)N2
Ki [1]: 4170 nM
Ki [2]: 115 nM

COC1(CCN2C(=O)N(c3ccccc3C(N)=O)C[C@]23CC[C@](c2ccccc2)(N(C)C)CC3)CCC1
Ki [1]: 19 nM
Ki [2]: 8 nM

CN(C)[C@]1(c2ccccc2)CC[C@]2(CC1)CN(c1cccc(F)c1)C(=O)N2
Ki [1]: 800 nM
Ki [2]: 66 nM

CN(C)[C@]1(c2ccccc2)CC[C@]2(CC1)CN(c1cnccc1C#N)C(=O)N2CC1CC1
Ki [1]: 465 nM
Ki [2]: 18 nM

CN[C@]1(c2ccccc2)CC[C@]2(CC1)CN(c1ncc(C#N)cn1)C(=O)N2CCCOC
Ki [1]: 855 nM
Ki [2]: 740 nM

CN[C@]1(c2ccccc2)CC[C@]2(CC1)CN(c1cnc(C#N)cc1C)C(=O)N2CC1CCC1
Ki [1]: 300 nM
Ki [2]: 4.6 nM

COCCN1C(=O)N(c2ccccc2)C[C@]12CC[C@](c1ccccc1)(N(C)C)CC2
Ki [1]: 215 nM
Ki [2]: 94.5 nM

CN(C)[C@]1(c2ccccc2)CC[C@]2(CC1)CN(c1cccnn1)C(=O)N2
Ki [1]: 1050 nM
Ki [2]: 245 nM

COCCCCN1C(=O)N(c2cnc(C#N)nc2)C[C@]12CC[C@](c1cccc(F)c1)(N(C)C)CC2
Ki [1]: 380 nM
Ki [2]: 13 nM

CN[C@]1(c2ccccc2)CC[C@]2(CC1)CN(c1cnc(C#N)nc1)C(=O)N2CCCOC
Ki [1]: 655 nM
Ki [2]: 70 nM

CN1C(=O)N(c2cnc(C#N)nc2)C[C@]12CC[C@](c1cccc(F)c1)(N(C)C)CC2
Ki [1]: 10900 nM
Ki [2]: 230 nM

CN(C)[C@]1(c2ccccc2)CC[C@]2(CC1)CN(c1cnc(C#N)nc1)C(=O)N2CC1CCC1
Ki [1]: 120 nM
Ki [2]: 0.3 nM

COC(=O)CN1CCN(c2ncc(N3C[C@]4(CC[C@](c5ccccc5)(N(C)C)CC4)NC3=O)cn2)CC1
Ki [1]: 7670 nM
Ki [2]: 18 nM

CN(C)[C@]1(c2ccccc2)CC[C@]2(CC1)CN(c1ccccc1C(N)=O)C(=O)N2
Ki [1]: 6040 nM
Ki [2]: 56 nM

CN[C@]1(c2ccccc2)CC[C@]2(CC1)CN(c1cnc(C)nc1)C(=O)N2CC1(O)CCC1
Ki [1]: 130 nM
Ki [2]: 24 nM

Cc1nc(N2CCOCC2)ncc1N1C[C@]2(CC[C@](c3ccccc3)(N(C)C)CC2)NC1=O
Ki [1]: 4580 nM
Ki [2]: 14 nM

CN(C)[C@]1(c2ccccc2)CC[C@]2(CC1)CN(c1nnc(C(F)(F)F)s1)C(=O)N2
Ki [1]: 4990 nM
Ki [2]: 14 nM

Cc1nc(N2CCOCC2)ncc1N1C[C@]2(CC[C@](c3cccs3)(N(C)C)CC2)NC1=O
Ki [1]: 1950 nM
Ki [2]: 11 nM

CN(CC1CC1)[C@]1(c2ccccc2)CC[C@]2(CC1)CN(c1cnc(C(F)(F)F)nc1)C(=O)N2
Ki [2]: 540 nM

CN(C(=O)C1CC1)c1ncc(N2C[C@]3(CC[C@](c4ccccc4)(N(C)C)CC3)NC2=O)cn1
Ki [2]: 19 nM

CN(C)[C@]1(c2ccccc2)CC[C@]2(CC1)CN(c1ncc(C(F)(F)F)cc1C(F)(F)F)C(=O)N2
Ki [2]: 53 nM

CCN(C)[C@]1(c2ccccc2)CC[C@]2(CC1)CN(c1ccc(C#N)cc1)C(=O)N2CC1CCC1
Ki [2]: 107 nM

CN(C)[C@]1(c2ccccc2)CC[C@]2(CC1)CN(c1cnc(-c3ccc(F)c(F)c3)nc1)C(=O)N2
Ki [2]: 20 nM

CN[C@]1(c2ccccc2)CC[C@]2(CC1)CN(c1ccccc1)C(=O)N2CC(=O)N(C)C
Ki [2]: 955 nM

CN(C)S(=O)(=O)c1ccc(N2C[C@]3(CC[C@](c4ccccc4)(N(C)C)CC3)N(CC3CCC3)C2=O)c(C(F)(F)F)c1
Ki [2]: 3.3 nM

CN(C)[C@]1(c2ccccc2)CC[C@]2(CC1)CN(c1ccccc1OCC(=O)O)C(=O)N2
Ki [2]: 635 nM

CN(C)[C@]1(c2ccccc2)CC[C@]2(CC1)CN(c1cccc(C(F)(F)F)c1)C(=O)N2
Ki [2]: 27 nM

CN(C)[C@]1(c2ccccc2)CC[C@]2(CC1)CN(c1c[nH]c3ccccc13)C(=O)N2
Ki [2]: 13 nM

CN(C)[C@]1(c2ccccc2)CC[C@]2(CC1)CN(c1ccccc1F)C(=O)N2
Ki [2]: 41 nM

CN(C)[C@]1(c2ccccc2)CC[C@]2(CC1)CN(c1cnc(N3CCOCC3)cc1C#N)C(=O)N2
Ki [2]: 24 nM

CN[C@]1(c2ccccc2)CC[C@]2(CC1)CN(c1ccc(C#N)cc1OC)C(=O)N2CC1(O)CCC1
Ki [2]: 24 nM

CN(C)[C@]1(c2ccccc2)CC[C@]2(CC1)CN(c1cnc(-c3cncnc3)nc1)C(=O)N2
Ki [2]: 130 nM

CN(C)[C@]1(c2ccccc2)CC[C@]2(CC1)CN(c1cncnc1)C(=O)N2
Ki [2]: 570 nM

CCN[C@]1(c2ccccc2)CC[C@]2(CC1)CN(c1cnc(C(F)(F)F)nc1)C(=O)N2CC1(O)CCC1
Ki [2]: 155 nM

CN(C)[C@]1(c2ccccc2)CC[C@]2(CC1)CN(c1cccc3[nH]ccc13)C(=O)N2
Ki [2]: 20 nM

CN(C)[C@]1(c2ccccc2)CC[C@]2(CC1)CN(c1ccc(C(F)(F)F)nc1)C(=O)N2
Ki [2]: 52 nM

CN(C)[C@]1(c2ccccc2)CC[C@]2(CC1)CN(c1ccccc1C(N)=O)C(=O)N2CC1(O)CCC1
Ki [2]: 5 nM
